Source: US7605155B2 (dated 2009)

molecular target: CDK2 (either cyclin A or E-dependent) (Homo sapiens, UniProt P24941); assay: biochemical

Q: With `Cn1cc(-c2cnn3c(N)c(Br)c(CC4CCCNC4)nc23)cn1` (stereo not drawn) as the molecule, how does the IC50 read?
A: 2400 nM

Q: For `Cn1cc(-c2cnn3c(N)c(Br)c(CC4CCNC4)nc23)cn1` (stereo not drawn), which IC50 is on record?
A: 840 nM

Q: `Cn1cc(-c2cnn3c(N)c(Br)c(CCN)nc23)cn1` was tested. Which IC50 did it give?
A: 920 nM
